# Experimental data: PubChem BioAssay AID602248 (The Scripps Research Institute Molecular Screening Center, 2012)
# The entries are a selection whose mix differs from that of the whole data set. Activity calls are given as the source filed them. No stated cut-off is given here; in the data, active means activation above about 15%; inactive means the rest.
# Test: counter-screen for M1 agonists: effect in parental CHO-K1 cells (AID 602248);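 further: untransfected CHO-K1 host cells lacking M1 receptor as counterscreen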
# Conditions: Fluo-8 calcium fluorescence, at 3 µM, hits give high values, scaled to maximal ATP response, vehicle zero
row,Compound,activation
1,CCN(N=Nc1nonc1N)c1nonc1N,inactive: 1.14%
2,O=C(Nc1cc([As](=O)(O)O)ccc1O)c1ccccc1,inactive: 0.86%
3,O=P1(N(CCCl)CCCl)OCCCS1 (stereo not drawn),inactive: 0.93%
4,C/C=C1/C[C@@H](C)[C@](O)(CO)C(=O)OCC2=CCN3CC[C@@H](OC1=O)[C@@H]23,inactive: -0.27%
5,O=C(O)CNc1ccc([As](=O)(O)O)cc1,inactive: 0.22%
6,O=[N+]([O-])c1cccc(NC2=NCC(CBr)S2)c1 (stereo not drawn),inactive: 0.72%
7,COC(=O)C1(C)COP(=O)(Nc2ccccc2)OC1 (stereo not drawn),inactive: 1.09%
8,O=[N+]([O-])c1ncn(CCn2ncnc2[N+](=O)[O-])n1,inactive: 1.31%
9,CC(C)(C)C(=O)NC(Sc1ccncn1)C(Cl)(Cl)Cl (stereo not drawn),inactive: 0.06%
10,O=[N+]([O-])c1cc([N+](=O)[O-])c(CCNc2ccccc2)c([N+](=O)[O-])c1,inactive: 0.27%
11,CCc1nc2c(n1)c1c(non1O)c1c2no[n+]1[O-],inactive: 8.59%
12,Cc1ccc(NP(=O)(Oc2ccccc2)Oc2ccccc2)nc1,inactive: 0.49%
13,CC(=O)N1C2C3N(C(C)=O)C1C1N(C(C)=O)C(C(N1C(C)=O)N3C(C)=O)N2C(C)=O,inactive: 1.01%
14,O=[N+]([O-])c1cccc2n[nH]nc12,inactive: -0.3%
15,COc1ccc(C2=NCC(CBr)S2)cc1 (stereo not drawn),inactive: 2.58%
16,c1cc(-c2nn[nH]n2)ccc1-c1nn[nH]n1,inactive: -0.12%
17,CC1CCN(C(=O)Oc2c(Cl)cc(Cl)c3cccnc23)CC1,inactive: 0.49%
18,CN(C)C(=O)OCCc1n(C)cc[n+]1C,inactive: 0.64%
19,CC(C)=N/N=C(\N)N[N+](=O)[O-],inactive: 1.08%
20,CC(C)c1nc(Nc2ccccc2)n(P(=O)(N(C)C)N(C)C)n1,inactive: -0.15%
21,CCN(/C(=N/P(=O)(N1CCOCC1)N1CCOCC1)N1CCOCC1)c1ccc(OC)cc1,inactive: 0.9%
22,C[N+]1=C2C=CC=CC=C2SC12C([N+](=O)[O-])=CC([N+](=O)[O-])=C[C-]2[N+](=O)[O-] (stereo not drawn),inactive: 3.92%
23,Nc1ccc([As](=O)(O)c2ccc(N)cc2)cc1,inactive: 0.61%
